We go through 18 molecules from PubChem BioAssay AID501 (PCMD, 2006).

The chains behind the UniProt entries cited, without tags or fusion partners. Residues count along the entry.
UniProt P25774, 115-331 limits assumed: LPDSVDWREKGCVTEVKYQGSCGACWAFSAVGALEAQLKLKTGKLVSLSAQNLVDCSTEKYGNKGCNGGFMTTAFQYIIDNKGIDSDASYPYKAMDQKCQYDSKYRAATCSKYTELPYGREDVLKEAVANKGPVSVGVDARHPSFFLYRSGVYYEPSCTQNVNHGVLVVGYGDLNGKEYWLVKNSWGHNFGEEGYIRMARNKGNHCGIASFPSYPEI

The entries are a selection whose mix differs from that of the whole data set. Active and inactive are the calls of the source. Rule as the data show it: active = inhibition above about 32% (passing the limit was not always enough); inconclusive = no clear call, values can overlap the other calls.

In this test the target is Cathepsin S (Homo sapiens) (UniProt P25774). The test can be described thus: inhibitors of human cathepsin S, biochemical, compound mixtures (AID 501).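 Also: 0% = enzyme without compound and 100% = blank without enzyme.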 Conditions: recombinant cathepsin S, AMC dipeptide fluorescence, pooled mixtures; hits give high values;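 tested at 5 µM per compound within 10-compound mixtures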.
On to `CP(=O)(Nc1ccccc1F)Oc1ccccc1` (stereo not drawn), for which the inhibition (as a rule, the drop in the measured response relative to a control, in per cent) is inactive: -5.58%.
The result for `CN(C)CCOC(=O)C(O)(c1ccccc1)C1CCCCC1` (stereo not drawn) reads inactive: 5.22%; that for `CCOP(C)(=S)SCC(=O)NC(C)(CC)C(=O)O` (stereo not drawn), inactive: 16.1%; that for `Cc1ccccc1NP(C)(=O)Nc1ccccc1C`, inactive: 4.28%.
The same measure for `CP(=O)(Nc1ccc2c(c1)OCCO2)Oc1ccccc1` (stereo not drawn): inactive: 18.3%; for `COc1ccccc1OP(C)(=O)Nc1c(C)n(C)n(-c2ccccc2)c1=O` (stereo not drawn): inactive: 17.4%.
The same measure for `CP(=O)(Oc1ccccc1)N1CCOC1=O` (stereo not drawn): inactive: -0.355%.
For the molecule `CCN(CC)CC(O)COC(=O)C(O)(c1ccccc1)C1CCCCC1` (stereo not drawn), the inhibition is inactive: -1.98%.
Regarding `COc1ccccc1OP(C)(=O)Nc1ccc(C)c(C)c1` (stereo not drawn), the inhibition is inactive: 4.1%.
As for `Cc1nc2ccc3ccccc3c2o1.O=[N+]([O-])c1cc([N+](=O)[O-])c(O)c([N+](=O)[O-])c1`, the inhibition is inactive: 13.3%.
The same measure for `CP(=O)(Nc1ccccn1)Oc1ccccc1` (stereo not drawn): inactive: 1.36%; for `Cc1ccc(NP(C)(=O)Oc2ccccc2)c(C)c1` (stereo not drawn): inactive: 2.69%.
The result for `COc1ccccc1OP(C)(=O)Nc1ccc(C)cc1` (stereo not drawn) reads inactive: 1.81%; that for `CP(=S)(Nn1cnnc1)Oc1ccccc1` (stereo not drawn), inactive: 11.3%; that for `CP(=O)(NC(=O)Nc1ccccc1)Oc1ccccc1` (stereo not drawn), inactive: -6.41%.
As for `CCOP(C)(=S)SCC(=O)NC(C)C(=O)O` (stereo not drawn), the inhibition is inactive: 9.35%.
Consider `Cc1nc2ccc3ccccc3c2s1.O=[N+]([O-])c1cc([N+](=O)[O-])c(O)c([N+](=O)[O-])c1`, for which the inhibition is inactive: 2.62%.
In the case of `Cc1ccc(C)c(NP(C)(=O)Oc2ccccc2)c1` (stereo not drawn), the inhibition is inactive: 17.3%.
